Laboratory results reported in PMC3541233 (PLoS ONE, 2013).

Amino acid sequences for entries named in this document (tags omitted). Residues count along the entry.
UniProt Q3L245, 26-602: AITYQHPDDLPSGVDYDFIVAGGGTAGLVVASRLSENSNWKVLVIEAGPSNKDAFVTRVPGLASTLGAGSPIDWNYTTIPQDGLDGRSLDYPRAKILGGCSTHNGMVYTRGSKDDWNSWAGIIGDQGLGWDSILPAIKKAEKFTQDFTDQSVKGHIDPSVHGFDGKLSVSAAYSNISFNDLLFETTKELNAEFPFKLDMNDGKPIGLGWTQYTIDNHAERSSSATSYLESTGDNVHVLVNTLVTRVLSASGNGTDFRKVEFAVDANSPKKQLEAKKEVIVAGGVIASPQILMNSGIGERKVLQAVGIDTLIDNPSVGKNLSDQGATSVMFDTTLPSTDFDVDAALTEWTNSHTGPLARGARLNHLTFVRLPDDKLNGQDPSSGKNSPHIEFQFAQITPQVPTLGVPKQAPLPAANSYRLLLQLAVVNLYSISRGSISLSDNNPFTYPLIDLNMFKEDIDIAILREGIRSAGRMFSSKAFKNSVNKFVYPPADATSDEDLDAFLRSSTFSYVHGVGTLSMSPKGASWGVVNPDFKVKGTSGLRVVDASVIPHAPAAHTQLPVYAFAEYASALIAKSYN

Molecular target: AmPDH (pyranose dehydrogenase, PDH) (Macropsalliota meleagris, UniProt Q3L245)
Parameters: gene pdh1

OC[C@H]1OC(O)[C@H](F)[C@@H](O)[C@@H]1O (stereo partly drawn) [2-fluoro-2-deoxy-D-glucose] was tested, and the “anaerobic reduction of enzyme FAD monitored at 463 nm” value was “The rate of reduction of PDH by 2-fluoro-2-deoxy-D-glucose (2FG) was significantly slower”.
